From paper PMC11584402

Chains of the proteins cited; added tags and fusions are not shown.
UniProt Q07817, whole entry: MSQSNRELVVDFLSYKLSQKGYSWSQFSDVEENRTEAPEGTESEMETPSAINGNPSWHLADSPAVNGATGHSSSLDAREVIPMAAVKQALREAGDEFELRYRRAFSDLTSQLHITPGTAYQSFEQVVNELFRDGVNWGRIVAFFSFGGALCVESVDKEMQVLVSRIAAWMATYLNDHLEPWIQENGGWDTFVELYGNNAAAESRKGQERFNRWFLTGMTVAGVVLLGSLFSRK
UniProt P10415, whole entry: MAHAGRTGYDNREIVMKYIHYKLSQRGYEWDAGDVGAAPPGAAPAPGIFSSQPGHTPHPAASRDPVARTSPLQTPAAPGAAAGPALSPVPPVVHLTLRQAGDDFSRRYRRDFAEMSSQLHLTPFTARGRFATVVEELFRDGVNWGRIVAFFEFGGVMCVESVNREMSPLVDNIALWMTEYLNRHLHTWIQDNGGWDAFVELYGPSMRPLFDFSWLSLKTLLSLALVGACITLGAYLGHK
UniProt O43521, whole entry: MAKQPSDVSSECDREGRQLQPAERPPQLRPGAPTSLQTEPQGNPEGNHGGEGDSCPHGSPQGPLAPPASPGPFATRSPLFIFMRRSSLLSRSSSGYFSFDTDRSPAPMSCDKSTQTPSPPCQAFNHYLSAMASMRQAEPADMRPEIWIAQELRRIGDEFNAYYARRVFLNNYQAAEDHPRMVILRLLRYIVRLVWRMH

Experiments:
[1] = target: BCLxL-mCherry (human) (UniProt Q07817); conditions: natural protein; chains chain; remark: other sources report otherwise
[2] = target: BCL2-mCherry (human) (UniProt P10415); conditions: natural protein; chains chain; remark: other sources report otherwise

With “BIMEL-eGFP (from UniProt O43521-1 1-198)” the Kd [1] was 71.1 nM and the Kd [2] was 134 nM.
